Measured values reported in patent US20100184790A1, “PYRROLO[2,3-B]PYRIDINE COMPOUNDS, AZAINDOLE COMPOUNDS USED FOR SYNTHESIZING SAID PYRROLO[2,3-B]PYRIDINE COMPOUNDS, METHODS FOR THE PRODUCTION THEREOF, AND USES THEREOF” (CENTRE NATIONAL DE LA RECHERCHE SCIENTIFIQUE, priority 2007, published 2010).

Experiments:
CDK2/cyclin A = molecular target: T1, CDK2/cyclin A (Homo sapiens, UniProt P24941); assay: CDK2/cyclin A kinase assay; format: biochemical; conditions: 15 μM ATP, 30° C., histone H1; read-out: IC50 CDK2/cyclinA
T1 construct: made in house; host or cells: insect cells

DYRK1A = DYRK1A (Rattus norvegicus, UniProt Q63470); assay: DYRK1A kinase assay (myelin basic protein); format: biochemical; conditions: 15 μM ATP, 30° C.
SH-SY5Y cells = assay: Cell survival, MTS reduction, SH-SY5Y; format: cell-based; conditions: Homo sapiens, Table 2, exposed for 24 hours
Protocol: The human neuroblastoma cell line SH-SY5Y was grown in a DMEM medium with L-glutamine originating from Invitrogen (Cergy Pontoise, France), antibiotics and 10% by volume of FCS originating from Invitrogen. […] The procedure was such as described in detail in Ribas J. et al., 2004, “Cell differentiation, caspase inhibition, and macromolecular synthesis blockage, but not BCL-2 or BCL-XL proteins, protect SH-SYS5 cells from apoptosis triggered by two CDK inhibitory drugs”, Exp. […] These compounds were also tested at various concentrations with regard to their effects on SH-SY5Y and HEK293 cells. […] The IC50 values were calculated from the dose-response curves and are given in micromoles (mean±standard deviation of two independent measurements carried out in triplicate). […] The survival of the cells was estimated by the assaying of the degree of reduction of MTS induced by this exposure. […] The ICS© values were calculated from dose-response curves and are given in micromoles in table 3 below.

- IC50 (CDK2/cyclin A): 51 nM
- IC50 (DYRK1A): 40 nM
SMILES: CC(C)Oc1ccnc2[nH]cc(-c3ccnc(N)n3)c12 [Meriolin 6, 3-[(2-amino)pyrimidin-4-yl]-4-(1-methylethoxy)-1H-pyrrolo[2,3-b]pyridine]
- IC50 (SH-SY5Y cells): 38 nM
